Screening data: PubChem BioAssay, National Center for Advancing Translational Sciences (NCATS)
DT40 TDP1 CPT = DT40-hTDP1 cell growth loss with CPT; chicken DT40 Tdp1-/-;hTDP1 cells + 20 nM CPT, ATP luminescence, 48 h; Potency, µM (titrated, usually from 46.2 µM), usual class: inhibitors; actives 12% (n = 420,000); AID 686979; note: nearly all actives have a fitted effect of over 55% in size
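Cell growth measured by CellTiter-Glo luminescence after a minimum 48 h, 37 C compound exposure with 20 nM CPT in Tdp1-knockout DT40 cells stably expressing hTDP1, seeded 400/well; qHTS titration format.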
uPA surface inh = cell surface uPA generation inhibition. Potency, µM (top dose mostly 38.3 µM), actives largely listed as inhibitors. cell surface uPA generation assay, qHTS. actives 0.31% (n = 330,000); active = well fitted inhibition curve with a large enough effect; inconclusive = small, poorly fitted or top-dose-only effect; inactive = no such curve, though single readings can be large or run the other way; tested in mouse RAW 264.7 cells; note: nearly all actives have a fitted effect of over 55% in size
TDP1 cell noCPT = qHTS for Inhibitors of human tyrosyl-DNA phosphodiesterase 1 (TDP1): qHTS in cells in absence of CPT. DT40 Tdp1-/- hTDP1 cells, no CPT, ATP luminescence, 48 h. Potency, µM (top dose mostly 46.2 µM), hits mostly inhibitors. actives 15% (n = 420,000). AID 686978, 2013; note: nearly all actives have a fitted effect of over 55% in size
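A cellular qHTS used chicken DT40 cells lacking endogenous Tdp1 but carrying stably transfected human TDP1. Compounds were applied without camptothecin, and cell growth kinetics were judged by ATP-dependent luminescence after ≥48 hr.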
miR-21 reporter = raises the signal of a miR-21 reporter | HeLa miR-21 FLuc reporter, luciferase, 48 h | Potency, µM (highest dose often 38.3 µM) | 340,000 tested, under 10 active | AID 2288; active = well fitted rising curve with a large enough effect; inconclusive = small, poorly fitted or top-dose-only effect; inactive = no such curve, though single readings can be large or run the other way;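 also: miR-21 action dims this reporter so a rising signal means less miR-21 action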
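HeLa cells endogenously expressing miR-21, stably carrying CMV-driven firefly luciferase with a downstream miR-21 binding site, 2000 cells/well. Titrations up to approximately 40 uM, 48 hours; luciferase luminescence read.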
TDP1 inh = blocks human tyrosyl-DNA phosphodiesterase 1; recombinant TDP1, AlphaScreen DNA substrate cleavage; Potency, µM (doses to about 130 µM), usual class: inhibitors; actives 0.28% (n = 350,000); Q9NUW8; AID 485290; note: nearly all actives have a fitted effect of over 40% in size
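Here, a 5' biotin and 3' phosphotyrosine-FITC DNA oligonucleotide reports Tdp1 activity: intact substrate bridges AlphaScreen beads, while cleavage leaves a 3' phosphate and drops signal. All incubations at room temperature.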
Numbers stand for hits; – = inactive; ? = inconclusive; · = not tested or not shown. Shown are actives, neighbours in structure and some others; about 16% of the full set was active somewhere. Unless noted, calls come from the whole dose curve; as a rule, active = well fitted curve in the direction sought with a large enough effect; inconclusive = small, poorly fitted or top-dose-only effect, or another doubt; inactive = no such curve, though single readings can be large; an effect the other way counts as inactive or inconclusive.

SMILES	DT40 TDP1 CPT	uPA surface inh	TDP1 cell noCPT	miR-21 reporter	TDP1 inh
O=C(Nc1cccc(C(F)(F)F)c1)c1cccnc1N1CCN(c2ccccc2)CC1	?	–	18µM	–	–
COc1ccc(NC(=O)N2CCN(c3cccc(C(F)(F)F)c3)CC2)cc1OC	?	–	12µM	–	–
Fc1ccc(NC(=S)N2CCCN(c3ccc(C(F)(F)F)cn3)CC2)c(F)c1	16µM	–	18µM	?	–
C=CCn1c(CCC(O)CCCCC)n[nH]c1=S (centres undefined)	–	–	–	–	–
O=C(Nc1ccccc1)OCN1C(=O)c2ccccc2C1=O	–	–	–	–	–
CN(C(=O)c1cc2nc(-c3ccc4c(c3)OCO4)cc(C(F)(F)F)n2n1)c1ccc(OC(F)(F)F)cc1	–	·	–	–	–
COC(=O)[C@H](CCSC)NC(=O)N1CCN(c2cccc(C(F)(F)F)c2)CC1	–	·	–	–	–
CC(NC(=O)c1ccco1)C(=O)N1CCN(c2cccc(C(F)(F)F)c2)CC1 (centres undefined)	13µM	–	10µM	·	–
CCC(C)[C@H](NC(=O)N1CCN(c2cccc(C(F)(F)F)c2)CC1)C(=O)OC (some centres undefined)	15µM	·	21µM	–	–
CC(NC(=O)c1ccco1)C(=O)N1CCN(c2ccccc2)CC1 (centres undefined)	–	–	–	–	–
Cc1ccc(NC(=O)CSCC(=O)N2CCN(c3cccc(C(F)(F)F)c3)CC2)cc1	?	–	15µM	·	·
Cc1cccc(Cl)c1NC(=S)N1CCN(c2ccc([N+](=O)[O-])cn2)CC1	?	–	26µM	–	·
Cc1ccc(-c2noc(CCC(=O)N3CCN(c4cccc(C(F)(F)F)c4)CC3)n2)cc1	?	–	?	–	–
CC(C)C1C(=O)NC(=S)N1S(=O)(=O)c1ccc(C(C)(C)C)cc1 (centres undefined)	–	–	–	–	–
CNC(=S)Nc1ccc(N2CCN(c3ccc(C(F)(F)F)cn3)CC2)nc1	?	–	26µM	–	–
O=C(Nc1ccccc1)N1CCN(c2ccc(C(F)(F)F)cn2)CC1	7.3µM	–	23µM	–	–
O=C(c1ccc2ccccc2c1)N1CCN(c2ccc(C(F)(F)F)cn2)CC1	–	–	?	–	–
CC(C)(C)c1ccc(NC(=O)N2CCCN(c3ccc([N+](=O)[O-])cn3)CC2)cc1	?	–	26µM	–	–
O=C(Nc1ccc([N+](=O)[O-])cc1)N1CCCCCC1	–	–	–	–	–
O=C(Nc1ccccc1)N1CCN(c2cccc(C(F)(F)F)c2)CC1	21µM	–	12µM	–	–
O=C(Nc1ccc(S(=O)(=O)Nc2ncccn2)cc1)c1ccc2ncsc2c1	?	–	?	–	–
Cc1n[nH]c(=S)n1/N=C/c1ccccc1OCc1ccc(Cl)cc1	?	–	?	–	–
O=C(Nc1ccccc1)N1CCCN(c2nccc(C(F)(F)F)n2)CC1	29µM	–	?	–	–
COc1cc(/C=C(\C#N)C(=O)Nc2cccc3ncccc23)cc(OC)c1OC	–	–	?	–	–
COc1cc(-c2cc(NC=O)c3ncc(-c4cccc(C(=O)N(C)C)c4)n3c2)cc(OC)c1OC	?	·	15µM	·	·
SMILES	DT40 TDP1 CPT	uPA surface inh	TDP1 cell noCPT	miR-21 reporter	TDP1 inh
CN(C)C(=O)c1cccc(-c2cnc3c(NC=O)cc(-c4ccccc4F)cn23)c1	?	·	18µM	·	·
CN(C)C(=O)c1cccc(-c2ccc3nncn3c2)c1	–	·	–	·	·
O=C(CSc1nc2ccccc2o1)Nc1ccccc1N1CCOCC1	?	–	?	–	–
COc1ccc(C(=O)NNC(=S)NC(=O)c2cc(-c3ccccc3)nc3ccccc23)cc1	?	–	16µM	–	–
CCCOc1ccc(C(=O)NNC(=S)NC(=O)c2cc(-c3ccc(Cl)cc3)nc3ccccc23)cc1	23µM	–	12µM	–	–
CCn1cc(CNC(=O)c2ccc(Cl)c([N+](=O)[O-])c2)c(C)n1	?	–	?	–	–
COc1ccc(NC(=O)CSC2=Nc3ccccc3N=C(c3ccc(F)cc3)C2)cc1OC	?	·	?	–	–
